Experimental findings from ChEMBL document CHEMBL1151964, “Divergent modes of enzyme inhibition in a homologous structure-activity series” (J Med Chem, 2009) are described below.

Amino acid sequences for entries named in this document (tags omitted). A change or cut given only in a name is not applied to a line headed by its entry.
UniProt P25779: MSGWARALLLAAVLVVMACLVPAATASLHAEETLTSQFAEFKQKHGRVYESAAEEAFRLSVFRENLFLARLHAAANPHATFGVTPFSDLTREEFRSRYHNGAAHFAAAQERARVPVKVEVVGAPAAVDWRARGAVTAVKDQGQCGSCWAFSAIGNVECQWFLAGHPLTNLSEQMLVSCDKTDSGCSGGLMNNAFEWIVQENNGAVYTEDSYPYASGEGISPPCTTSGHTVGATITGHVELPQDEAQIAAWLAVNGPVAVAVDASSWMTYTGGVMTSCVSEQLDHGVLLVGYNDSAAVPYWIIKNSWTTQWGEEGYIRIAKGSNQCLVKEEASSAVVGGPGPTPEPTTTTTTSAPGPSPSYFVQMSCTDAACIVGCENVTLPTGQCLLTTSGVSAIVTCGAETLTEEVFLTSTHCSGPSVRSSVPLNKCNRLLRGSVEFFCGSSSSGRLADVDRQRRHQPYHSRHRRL

The source made the active and inactive calls. The rule behind the calls is not given here.

The target in test [1] is Cruzipain (Trypanosoma cruzi) (UniProt P25779). The test is described as follows: Inhibition of Trypanosoma cruzi cruzain assessed as colloidal aggregates particles formation after 5 mins by flow cytometry. In short, it runs like this:
(§1)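 Particle (aggregate) formation was assessed by flow cytometry, with some samples checked by dynamic light scattering. The value is the lowest concentration tested at which particles were seen.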

Test [2] has the same target. As to the kind of experiment: Inhibition of Trypanosoma cruzi cruzain assessed as colloidal aggregates particles formation after 5 mins by flow cytometry in presence of 0.001% Triton X-100. In short, it runs like this: as §1
A general note: In flow cytometry, cells or beads pass a laser one at a time.

Take `Nc1ccccc1-c1nnc(C(=O)NCCN2CCOCC2)o1`: the Activity in test [1] was > 200 µM. Also, in test [2], the outcome was inactive.
